Values quoted from earlier work as cited in publication PMC4752257.

The chains behind the UniProt entries cited, without tags or fusion partners. Residues count along the entry.
UniProt P31785, 23-262: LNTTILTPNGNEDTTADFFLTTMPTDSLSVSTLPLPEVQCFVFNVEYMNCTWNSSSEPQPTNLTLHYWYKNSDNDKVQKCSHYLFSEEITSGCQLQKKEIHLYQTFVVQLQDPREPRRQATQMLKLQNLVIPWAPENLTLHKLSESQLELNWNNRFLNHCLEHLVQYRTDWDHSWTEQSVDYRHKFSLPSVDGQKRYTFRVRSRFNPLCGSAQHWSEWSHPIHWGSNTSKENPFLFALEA
UniProt P05112, 25-153: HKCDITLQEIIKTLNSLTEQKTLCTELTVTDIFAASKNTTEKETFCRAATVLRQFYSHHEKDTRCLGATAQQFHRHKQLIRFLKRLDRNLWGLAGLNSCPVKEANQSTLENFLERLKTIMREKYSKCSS

Target: common gamma chain (Homo sapiens) (UniProt P31785)

- Kd: 150 µM
Substance: IL-4 (from UniProt P05112)
